# Experimental data from patent publication US20260217707A1, “GLP-1R AGONISTS AND USES THEREOF” (Fochon Biosciences, Ltd., priority 2023, published 2026).
# Sequences of proteins named here, by UniProt entry; tags and fusion partners are left off. Residues count along the entry.
# UniProt P43220, 24-463 limits assumed: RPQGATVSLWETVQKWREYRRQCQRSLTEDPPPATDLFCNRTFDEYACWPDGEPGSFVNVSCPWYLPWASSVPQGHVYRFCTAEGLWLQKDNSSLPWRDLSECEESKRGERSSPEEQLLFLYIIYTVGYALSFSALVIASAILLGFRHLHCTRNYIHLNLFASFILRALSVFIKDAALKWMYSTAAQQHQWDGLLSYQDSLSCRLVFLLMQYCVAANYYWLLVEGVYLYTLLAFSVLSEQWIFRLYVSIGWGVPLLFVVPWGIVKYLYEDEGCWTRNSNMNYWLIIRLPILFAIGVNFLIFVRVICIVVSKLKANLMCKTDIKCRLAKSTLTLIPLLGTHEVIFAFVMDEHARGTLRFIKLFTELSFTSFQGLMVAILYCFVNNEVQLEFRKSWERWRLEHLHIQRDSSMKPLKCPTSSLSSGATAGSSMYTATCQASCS
# Target: GLP1R receptor (Homo sapiens, UniProt P43220)
# Assay: cAMP assay: intracellular cAMP detected by TR-FRET
# Conditions: read-out: cAMP Assay EC50, cells incubated with compound at 37° C. for 30 min, maximum concentration 12 μM
# Procedure: Intracellular cAMP concentration was detected by TR-FRET method to evaluate the activity of drug-induced GLP1R receptor. The cells were prepared in an experimental buffer solution (HBSS, 20 mM HEPES (pH 7.5), 0.1% BSA, 500 μM IBMX) and inoculated into 384 cell culture plates with a inoculated density of 2000 cells and a inoculated volume of 15 μL per well. The compound was diluted by 3 times gradient with DMSO, 10 concentration gradients, and the 10 concentration gradients were diluted by 100 times in Buffer. The maximum concentration point of compound to be tested was 12 μM. The inoculated 384 cell plates were added with 5 μL prepared working solution and incubated at 37° C. for 30 min. Eu-cAMP tracer was diluted 50 times and Ulight-anti-cAMP 150 times by detection buffer (cAMP Kit, Perkin Elmer, cat #TRF0263). At first, 10 μL Eu-cAMP tracer was added to each experimental well, and then 10 μL Uligh-anti-cAMP was added to each experimental well. Centrifuged the assay plate at 200 g, RT, for 30 s, incubated it at 25° C. for 1 h. Collected the data by Envision 2105 microplate reader with a HTRF module. […]
# The activation rate of each concentration of the tested compound to the positive drug was calculated by the formula % Activity=100 (SignalcmpdSignalAve_PC)/(SignalAve_VCSignalAve_PC)×100, EC50 values and nonlinear regression curve fits were obtained using GraphPad Prism software.
smiles,measurement,value
Cc1cc(-n2nc3c(c2-n2cnn(-c4ccc5c(cnn5C)c4F)c2=O)[C@H](C)N(C(=O)c2cc4cc(C5CCOC(C)(C)C5)ccc4n2[C@@]2(c4noc(=O)[nH]4)C[C@@H]2C)CC3)cc(C)c1F (stereo partly shown),EC50,511 pM
